Laboratory results published in US9376684.

Target: hirudin-CD4 (glycine linker length not stated) (Hirudo medicinalis; human) (UniProt P01050)
Test: flow cytometry, two hirudin-CD4 clones incubated with thrombin up to 82 U/ml

## thrombin (from UniProt P00734 328-363; P00734 364-622) (enzyme)
  thrombin concentration at which cells were still not saturated (mean fluorescence intensities): > 82 U/ml
  thrombin concentration at which transfectants were saturated (percentage positive cells): 41 U/ml
